Source: PubChem BioAssay AID636 (SRMLSC, 2007)
The list shows a part of the results, in another mix than the full data. Some results for these compounds are left out of this collection, so the calls shown say nothing about other tests. Calls of active or inactive are those of the source. Rule as the data show it: active = inhibition above about 31%; inactive = the rest.

Test: 384-well plate pilot, post-Golgi transport modulator project, inhibition of yeast transport mutant growth (AID 636)
Settings: absorbance 615 nm, about 18 h, stronger effect = higher value

Row | Compound | inhibition
1 | O=C(OC1CN2CCC1CC2)C(CO)(c1ccccc1)c1ccccc1 (stereo unspecified) | inactive: -7.2%
